Reference: PubChem BioAssay AID624 (Vanderbilt High Throughput Screening Facility, 2007)
This is a selection; strong and weak results do not stand in their true shares. The source made the active and inactive calls.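 Rule for the calls: active = fluorescence slope after compound addition differing from the mean of all screened samples at 99.7% confidence, in either direction; inactive = the rest.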

The chains behind the UniProt entries cited, without tags or fusion partners.
UniProt P18825, whole entry, looked up: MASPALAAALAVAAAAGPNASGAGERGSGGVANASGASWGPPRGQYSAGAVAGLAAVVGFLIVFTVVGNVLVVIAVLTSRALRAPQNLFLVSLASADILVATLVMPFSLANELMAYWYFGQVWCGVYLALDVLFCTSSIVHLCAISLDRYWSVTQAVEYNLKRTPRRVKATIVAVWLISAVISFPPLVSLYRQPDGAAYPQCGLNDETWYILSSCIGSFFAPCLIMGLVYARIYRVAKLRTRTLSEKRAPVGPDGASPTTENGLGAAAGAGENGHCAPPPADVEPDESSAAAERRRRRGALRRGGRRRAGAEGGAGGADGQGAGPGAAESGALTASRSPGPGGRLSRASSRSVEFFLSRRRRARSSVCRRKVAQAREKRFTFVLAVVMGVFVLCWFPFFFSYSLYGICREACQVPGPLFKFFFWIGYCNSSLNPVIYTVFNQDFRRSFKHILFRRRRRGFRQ

Each molecule was assayed against Alpha-2C adrenergic receptor (Homo sapiens) (UniProt P18825) (assay: modulators of alpha2C/GIRK thallium flux, primary screen, cell-based, HEK293 alpha2C/GIRK1/2 (AID 624;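 note: slope of fluorescence ratio to pre-addition baseline per second over 15 to 24 s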)). Settings: thallium flux BTC fluorescence, at 10 µM, actives lie on both sides.

Row | SMILES | slope
1 | O=P(Nc1nccs1)(c1ccccc1)c1ccccc1 | inactive: 0.00606
2 | CCOP1(=S)c2c(C)nn(CCC#N)c2N=C(c2ccccc2F)N1C (stereo not drawn) | inactive: 0.00323
3 | Cc1ccc(OCC(=O)OC2CN3CCC2CC3)cc1 (stereo not drawn) | inactive: 0.00533
